Earlier results in PMC10279755 (Nature Communications, 2023).
pIC50: −log10 of the molar value.

Target: aminopeptidase N (APN, also known as CD13)
Set-up: method as in PMID 15992355
Conditions: reported value; cited from earlier work

With COc1cc(/C=C/C(=O)CC(=O)/C=C/c2ccc(O)c(OC)c2)ccc1O [curcumin] as the molecule, how does the pIC50 read?
Its pIC50 is 5.00.
